Data published in patent publication US7985561B2 (priority 2006, dated 2011).

Test system: breast cancer patients

O=P1(N(CCCl)CCCl)NCCCO1 (stereo not drawn) [Cyclophosphamide]
HR (95% CI), univariate (5-year breast cancer survival, Ala/Ala vs Val/Val & Val/Ala (ref.), recessive model): 2.96 (1.59-5.52)
HR (95% CI), multivariate (5-year breast cancer survival, Ala/Ala vs Val/Val & Val/Ala (ref.), recessive model, multivariate Cox regression): 5.06 (2.39-10.7)
HR (95% CI), multivariate (5-year breast cancer survival, Ala/Ala vs Val/Val (ref.), multivariate Cox regression): 20.3 (4.43-93.3)
HR (95% CI), multivariate (5-year breast cancer survival, Ala/Ala vs Val/Val (ref.), multivariate Cox regression, listed as cyclophosphamide): 20.3
HR (95% CI), univariate (5-year breast cancer survival, Ala/Ala vs Val/Val (ref.), patients receiving the drug-based chemotherapy): 6.13 (2.06-18.3)
HR (95% CI), univariate (5-year breast cancer survival, Val/Ala & Ala/Ala vs Val/Val (ref.), dominant model): 3.62 (1.29-10.1)
HR (95% CI), multivariate (5-year breast cancer survival, Val/Ala & Ala/Ala vs Val/Val (ref.), dominant model, multivariate Cox regression): 3.39 (1.15-9.99)
HR (95% CI), multivariate (5-year breast cancer survival, Val/Ala vs Val/Val (ref.), multivariate Cox regression): 1.88 (0.85-6.09)
HR (95% CI), univariate (5-year breast cancer survival, Val/Ala vs Val/Val (ref.), patients receiving the drug-based chemotherapy): 2.70 (0.92-7.89)
HR (95% CI), multivariate (10-year breast cancer survival, Ala/Ala vs Val/Val & Val/Ala (ref.), recessive model, adjusted Cox regression): 4.33 (2.18-8.58)
HR (95% CI), univariate (10-year breast cancer survival, Ala/Ala vs Val/Val & Val/Ala (ref.), recessive model, patients receiving the drug-based chemotherapy): 2.75 (1.56-4.86)
HR (95% CI), multivariate (10-year breast cancer survival, Ala/Ala vs Val/Val (ref.), Cox regression adjusted for age, study site, race, tumor size, nodes, grade, ER, p53): 22.1 (5.06-96.4)
HR (95% CI), multivariate (10-year breast cancer survival, Ala/Ala vs Val/Val (ref.), Cox regression adjusted for age, study site, race, tumor size, nodes, grade, ER, p53, listed as cyclophosphamide): 22.1
HR (95% CI), univariate (10-year breast cancer survival, Ala/Ala vs Val/Val (ref.), patients receiving the drug-based chemotherapy): 5.81 (2.17-15.2)
HR (95% CI), multivariate (10-year breast cancer survival, Val/Ala & Ala/Ala vs Val/Val (ref.), dominant model, adjusted Cox regression): 3.24 (1.23-8.54)
HR (95% CI), univariate (10-year breast cancer survival, Val/Ala & Ala/Ala vs Val/Val (ref.), dominant model, patients receiving the drug-based chemotherapy): 3.63 (1.44-9.14)
HR (95% CI), multivariate (10-year breast cancer survival, Val/Ala vs Val/Val (ref.), Cox regression adjusted for age, study site, race, tumor size, nodes, grade, ER, p53): 2.02 (0.71-5.72)
HR (95% CI), univariate (10-year breast cancer survival, Val/Ala vs Val/Val (ref.), patients receiving the drug-based chemotherapy): 2.82 (1.08-7.36)

Where two headings read alike, the source gives them in different places.
